Assay results as given in patent US8354403B2, “Pyrrolidine derived beta 3 adrenergic receptor agonists” (Merck Sharp & Dohme Corp., priority 2009, dated 2013).
Like-named read-outs stand apart in the source and are kept apart here.

Amino acid sequences for entries named in this document (tags omitted).
UniProt P13945, whole entry: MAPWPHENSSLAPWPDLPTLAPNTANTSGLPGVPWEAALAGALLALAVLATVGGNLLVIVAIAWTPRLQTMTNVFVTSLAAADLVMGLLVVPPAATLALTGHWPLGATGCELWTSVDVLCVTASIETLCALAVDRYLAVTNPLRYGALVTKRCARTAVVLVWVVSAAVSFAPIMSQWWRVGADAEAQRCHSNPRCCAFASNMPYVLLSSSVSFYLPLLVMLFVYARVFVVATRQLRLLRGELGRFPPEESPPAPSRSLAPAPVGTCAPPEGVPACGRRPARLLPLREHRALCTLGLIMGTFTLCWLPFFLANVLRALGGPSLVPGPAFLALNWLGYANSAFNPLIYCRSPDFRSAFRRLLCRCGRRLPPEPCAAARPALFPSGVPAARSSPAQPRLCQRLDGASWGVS

Biological target: human β3 adrenergic receptor (Homo sapiens, UniProt P13945)
Experiment: Beta-3 agonist in vitro functional assay: cAMP production (LANCE TR-FRET) in CHO cells stably transfected with the cloned β3 receptor
Type: cell-based
Conditions: read-out: Human β3 agonist functional activity
[1] = Table 12, human β3 functional activity given as ranges
[2] = Table 8, Beta-3 agonist in vitro functional assay

Compound	EC50 (Table 6, cAMP, CHO cells) [nM]	further results
O=C(c1ccc(C[C@@H]2CC[C@H]([C@H](O)c3cccnc3)N2)cc1)N1CCC(n2ncnn2)CC1		EC50 (Table 5, cAMP, CHO cells): 10 to 99.9 nM
CC(C)c1nc([C@H]2[C@@H]3CN(C(=O)c4ccc(C[C@@H]5CC[C@H]([C@H](O)c6ccccc6)N5)cc4)C[C@@H]32)no1	10 to 99.9	
O=C(c1ccc(C[C@@H]2CC[C@H]([C@H](O)c3ccccc3)N2)cc1)N1C[C@@H]2[C@H](C1)[C@H]2c1noc(C2CC2)n1	1 to 9.9	
CC(C)n1nnnc1[C@H]1[C@@H]2CN(C(=O)c3ccc(C[C@@H]4CC[C@H]([C@H](O)c5ccccc5)N4)cc3)C[C@@H]21	1 to 9.9	
O=C(c1ccc(C[C@@H]2CC[C@H]([C@H](O)c3ccccc3)N2)cc1)N1C[C@@H]2[C@H](C1)[C@H]2c1nnc(C2CC2)o1	1 to 9.9	
O=C(c1ccc(C[C@@H]2CC[C@H]([C@H](O)c3ccccc3)N2)cc1)N1C[C@@H]2[C@H](C1)[C@H]2c1ncco1	10 to 99.9	
Cn1nnnc1[C@H]1[C@@H]2CN(C(=O)c3ccc(C[C@@H]4CC[C@H]([C@H](O)c5ccccc5)N4)cc3)C[C@@H]21	10 to 99.9	
Cn1cc([C@H]2[C@@H]3CN(C(=O)c4ccc(C[C@@H]5CC[C@H]([C@H](O)c6ccccc6)N5)cc4)C[C@@H]32)nn1	10 to 99.9	
Cc1nnc([C@H]2[C@@H]3CN(C(=O)c4ccc(C[C@@H]5CC[C@H]([C@H](O)c6ccccc6)N5)cc4)C[C@@H]32)s1	10 to 99.9	
Cc1nnc([C@H]2[C@@H]3CN(C(=O)c4ccc(C[C@@H]5CC[C@H]([C@H](O)c6ccccc6)N5)cc4)C[C@@H]32)o1	1 to 9.9	
CC([C@H]1[C@@H]2CN(C(=O)c3ccc(C[C@@H]4CC[C@H]([C@H](O)c5ccccc5)N4)cc3)C[C@@H]21)n1cncn1 (some centres unmarked)	100 to 999	
CC([C@H]1[C@@H]2CN(C(=O)c3ccc(C[C@@H]4CC[C@H]([C@H](O)c5ccccc5)N4)cc3)C[C@@H]21)n1cccn1 (some centres unmarked)	1 to 9.9	
CCc1nnc([C@H]2[C@@H]3CN(C(=O)c4ccc(C[C@@H]5CC[C@H]([C@H](O)c6ccccc6)N5)cc4)C[C@@H]32)o1	1 to 9.9	
CCOC(=O)[C@H]1[C@@H]2CN(C(=O)c3ccc(C[C@@H]4CC[C@H]([C@H](O)c5ccccc5)N4)cc3)C[C@@H]21	< 1	
O=C(c1ccc(C[C@@H]2CC[C@H]([C@H](O)c3ccccc3)N2)cc1)N1CCN(C2CCCc3cccnc32)CC1 (single isomer, unassigned)		EC50 [1]: 10 to 99.9 nM
CC([C@H]1[C@@H]2CN(C(=O)c3ccc(C[C@@H]4CC[C@H]([C@H](O)c5ccccc5)N4)cc3)C[C@@H]21)n1ccnn1 (some centres unmarked)	100 to 999	
CS(=O)(=O)C1OC2(CCN(C(=O)c3ccc(C[C@@H]4CC[C@H]([C@H](O)c5ccccc5)N4)cc3)CC2)c2ccccc21 (some centres unmarked)		EC50 [2]: 10 to 99.9 nM
O=C(c1ccc(CC2CCC(C(O)c3ccccc3)N2)cc1)N1CC2C(C1)C2Cn1cncn1 (centres unmarked)	100 to 999	
Cc1coc([C@H]2[C@@H]3CN(C(=O)c4ccc(C[C@@H]5CC[C@H]([C@H](O)c6ccccc6)N5)cc4)C[C@@H]32)n1	10 to 99.9	
O=C(c1ccc(C[C@@H]2CC[C@H]([C@H](O)c3ccccc3)N2)cc1)N1CCn2cc(C(F)(F)F)nc2C1		EC50 (Table 11, cAMP, CHO cells): 100 to 999 nM
O=C(c1ccc(C[C@@H]2CC[C@H]([C@H](O)c3ccccc3)N2)cc1)N1CCC(n2cccn2)CC1 [Example 64, (R)-phenyl[(2R,5S)-5-(4-{[4-(1H-pyrazol-1-yl)-piperidin-1-yl]carbonyl}benzyl)pyrrolidine-2-yl]methanol]		EC50 (Table 5, cAMP, CHO cells): 10 to 99.9 nM

Compound	EC50 (Table 6, cAMP, CHO cells) [nM]	further results
CCN(C)C(=O)[C@H]1[C@@H]2CN(C(=O)c3ccc(C[C@@H]4CC[C@H]([C@H](O)c5ccccc5)N4)cc3)C[C@@H]21	100 to 999	
O=C(c1ccc(C[C@@H]2CC[C@H]([C@H](O)c3ccccc3)N2)cc1)N1C[C@@H]2[C@H](C1)[C@H]2Cn1cccn1	10 to 99.9	
O=C(c1ccc(C[C@@H]2CC[C@H]([C@H](O)c3ccccc3)N2)cc1)N1C[C@@H]2[C@H](C1)[C@H]2c1nnc(CC(F)(F)F)o1	1 to 9.9	
O=C(c1ccc(C[C@@H]2CC[C@H]([C@H](O)c3ccccc3)N2)cc1)N1CCC2(CCCC2(F)F)CC1		EC50 [2]: 10 to 99.9 nM
O=C(c1ccc(C[C@@H]2CC[C@H]([C@H](O)c3ccccc3)N2)cc1)N1C[C@@H]2[C@H](C1)[C@H]2c1nnc[nH]1	10 to 99.9	
Cc1cnc([C@H]2[C@@H]3CN(C(=O)c4ccc(C[C@@H]5CC[C@H]([C@H](O)c6cccnc6)N5)cc4)C[C@@H]32)o1	10 to 99.9	
Cc1noc([C@H]2[C@@H]3CN(C(=O)c4ccc(C[C@@H]5CC[C@H]([C@H](O)c6ccccc6)N5)cc4)C[C@@H]32)n1	10 to 99.9	
N#C[C@@H]1[C@H]2CN(C(=O)c3ccc(C[C@@H]4CC[C@H]([C@H](O)c5ccccc5)N4)cc3)C[C@@H]12	100 to 999	
O=C(c1ccc(C[C@@H]2CC[C@H]([C@H](O)c3ccccc3)N2)cc1)N1C[C@@H]2[C@H](C1)[C@H]2c1noc(CO)n1	1 to 9.9	
O=C(c1ccc(C[C@@H]2CC[C@H]([C@H](O)c3ccccc3)N2)cc1)N1C[C@@H]2[C@H](C1)[C@H]2Cn1ncnn1	10 to 99.9	
CC([C@H]1[C@@H]2CN(C(=O)c3ccc(C[C@@H]4CC[C@H]([C@H](O)c5ccccc5)N4)cc3)C[C@@H]21)n1ncnn1 (some centres unmarked)	10 to 99.9	
CC(C)(O)c1nc([C@H]2[C@@H]3CN(C(=O)c4ccc(C[C@@H]5CC[C@H]([C@H](O)c6ccccc6)N5)cc4)C[C@@H]32)no1	10 to 99.9	
CCOC(=O)[C@H]1[C@@H]2CN(C(=O)c3ccc(C[C@@H]4CC[C@H]([C@H](O)c5cccnc5)N4)cc3)C[C@@H]21	1 to 9.9	
Cc1nnc([C@H]2[C@@H]3CN(C(=O)c4ccc(C[C@@H]5CC[C@H]([C@H](O)c6ccccc6)N5)cc4)C[C@@H]32)[nH]1	100 to 999	
O=C(c1ccc(C[C@@H]2CC[C@H]([C@H](O)c3ccccc3)N2)cc1)N1CC2CC(n3cccn3)CC2C1 (stereo partly drawn) [Example 1, (R)-phenyl[(2R,5S)-5-(4-{[5-(1H-pyrazol-1-yl)hexahydrocyclopenta[c]pyrrol-2(1H)-yl]carbonyl}benzyl)pyrrolidin-2-yl]methanol]		EC50 (Table 4, cAMP, CHO cells): 1 to 9.9 nM
COc1ccccc1CC1CCN(C(=O)c2ccc(C[C@@H]3CC[C@H]([C@H](O)c4ccccc4)N3)cc2)CC1		EC50 (Table 5, cAMP, CHO cells): 10 to 99.9 nM
O=C(c1ccc(C[C@@H]2CC[C@H]([C@H](O)c3ccccc3)N2)cc1)N1C[C@@H]2[C@H](C1)[C@H]2C(=O)N1CCCC1	100 to 999	
O=C(c1ccc(C[C@@H]2CC[C@H]([C@H](O)c3cccnc3)N2)cc1)N1C[C@@H]2[C@H](C1)[C@H]2c1nnco1	1 to 9.9	
CC([C@H]1[C@@H]2CN(C(=O)c3ccc(C[C@@H]4CC[C@H]([C@H](O)c5ccccc5)N4)cc3)C[C@@H]21)n1nccn1 (some centres unmarked)	10 to 99.9	
CC(c1ccn[nH]1)N1CCN(C(=O)c2ccc(C[C@@H]3CC[C@H]([C@H](O)c4ccccc4)N3)cc2)CC1 (single isomer, unassigned)		EC50 [1]: 1 to 9.9 nM
O=C(c1ccc(C[C@@H]2CC[C@H]([C@H](O)c3ccccc3)N2)cc1)N1CCC2(CCOC2=O)CC1 [Example 239, 8-[4-({(2S,5R)-5-[(R)-hydroxy(phenyl)methyl]pyrrolidin-2-yl}methyl)benzoyl]-2-oxa-8-azaspiro[4.5]decan-1-one]		EC50 [2]: 1 to 9.9 nM

Compound	EC50 (Table 6, cAMP, CHO cells) [nM]	further results
O=C(c1ccc(C[C@@H]2CC[C@H]([C@H](O)c3ccccc3)N2)cc1)N1C[C@@H]2[C@H](C1)[C@H]2c1noc(-c2ccccn2)n1	1 to 9.9	
O=C(O)[C@H]1[C@@H]2CN(C(=O)c3ccc(C[C@@H]4CC[C@H]([C@H](O)c5ccccc5)N4)cc3)C[C@@H]21	1 to 9.9	
O=C(c1ccc(C[C@@H]2CC[C@H]([C@H](O)c3ccccc3)N2)cc1)N1C[C@@H]2[C@H](C1)[C@H]2c1nnc(CO)o1	1 to 9.9	
O=C(c1ccc(C[C@@H]2CC[C@H]([C@H](O)c3ccccc3)N2)cc1)N1C[C@@H]2[C@H](C1)[C@H]2Cn1cnnn1	10 to 99.9	
O=C(c1ccc(C[C@@H]2CC[C@H]([C@H](O)c3ccccc3)N2)cc1)N1C[C@@H]2[C@H](C1)[C@H]2Cn1ccnn1	100 to 999	
Cc1nc([C@H]2[C@@H]3CN(C(=O)c4ccc(C[C@@H]5CC[C@H]([C@H](O)c6ccccc6)N5)cc4)C[C@@H]32)no1	1 to 9.9	
O=C(c1ccc(C[C@@H]2CC[C@H]([C@H](O)c3ccccc3)N2)cc1)N1C[C@@H]2[C@@H](CO)[C@@H]2C1	10 to 99.9	
O=C(c1ccc(C[C@@H]2CC[C@H]([C@H](O)c3ccccc3)N2)cc1)N1C[C@@H]2[C@H](C1)[C@H]2c1nnn[nH]1	1 to 9.9	
Nc1nnc([C@H]2[C@@H]3CN(C(=O)c4ccc(C[C@@H]5CC[C@H]([C@H](O)c6ccccc6)N5)cc4)C[C@@H]32)o1	1 to 9.9	
COC(=O)C1CN(C(=O)c2ccc(C[C@@H]3CC[C@H]([C@H](O)c4ccccc4)N3)cc2)C1		EC50 (Table 4, cAMP, CHO cells): 100 to 999 nM
Cc1nnnn1[C@H]1[C@@H]2CN(C(=O)c3ccc(C[C@@H]4CC[C@H]([C@H](O)c5ccccc5)N4)cc3)C[C@@H]21	100 to 999	
O=C(c1ccc(C[C@@H]2CC[C@H]([C@H](O)c3ccccc3)N2)cc1)N1C[C@@H]2[C@H](C1)[C@H]2c1n[nH]c(=O)o1	10 to 99.9	
CCNC(=O)[C@H]1[C@@H]2CN(C(=O)c3ccc(C[C@@H]4CC[C@H]([C@H](O)c5ccccc5)N4)cc3)C[C@@H]21	10 to 99.9	
O=C(c1ccc(C[C@@H]2CC[C@H]([C@H](O)c3ccccc3)N2)cc1)N1C[C@@H]2[C@H](C1)[C@H]2c1noc(C2(O)CC2)n1	1 to 9.9	
N[C@@H]1[C@H]2CN(C(=O)c3ccc(C[C@@H]4CC[C@H]([C@H](O)c5ccccc5)N4)cc3)C[C@@H]12	100 to 999	
CC(C)(O)c1nnc([C@H]2[C@@H]3CN(C(=O)c4ccc(C[C@@H]5CC[C@H]([C@H](O)c6ccccc6)N5)cc4)C[C@@H]32)o1	10 to 99.9	
CC(C)n1cc([C@H]2[C@@H]3CN(C(=O)c4ccc(C[C@@H]5CC[C@H]([C@H](O)c6ccccc6)N5)cc4)C[C@@H]32)nn1	10 to 99.9	
O=C(c1ccc(C[C@@H]2CC[C@H]([C@H](O)c3ccccc3)N2)cc1)N1C[C@@H]2[C@H](C1)[C@H]2c1ncno1	1 to 9.9	
O=C(c1ccc(C[C@@H]2CC[C@H]([C@H](O)c3ccccc3)N2)cc1)N1CCNCC1		EC50 (Table 9, Beta-3 agonist in vitro functional assay): 100 to 999 nM
O=C(c1ccc(C[C@@H]2CC[C@H]([C@H](O)c3ccccc3)N2)cc1)N1C[C@@H]2[C@H](C1)[C@H]2c1nnc(C(F)(F)F)o1	10 to 99.9	
